Assays:
[1] = target: Receptor tyrosine-protein kinase erbB-2 (Homo sapiens, UniProt P04626); experiment: Inhibition of human recombinant cytoplasmic HER2 kinase expressed in Sf9 cells
[2] = target: Epidermal growth factor receptor (Homo sapiens, UniProt P00533)

Amino acid sequences for entries named in this document (tags omitted).
UniProt P04626, whole entry: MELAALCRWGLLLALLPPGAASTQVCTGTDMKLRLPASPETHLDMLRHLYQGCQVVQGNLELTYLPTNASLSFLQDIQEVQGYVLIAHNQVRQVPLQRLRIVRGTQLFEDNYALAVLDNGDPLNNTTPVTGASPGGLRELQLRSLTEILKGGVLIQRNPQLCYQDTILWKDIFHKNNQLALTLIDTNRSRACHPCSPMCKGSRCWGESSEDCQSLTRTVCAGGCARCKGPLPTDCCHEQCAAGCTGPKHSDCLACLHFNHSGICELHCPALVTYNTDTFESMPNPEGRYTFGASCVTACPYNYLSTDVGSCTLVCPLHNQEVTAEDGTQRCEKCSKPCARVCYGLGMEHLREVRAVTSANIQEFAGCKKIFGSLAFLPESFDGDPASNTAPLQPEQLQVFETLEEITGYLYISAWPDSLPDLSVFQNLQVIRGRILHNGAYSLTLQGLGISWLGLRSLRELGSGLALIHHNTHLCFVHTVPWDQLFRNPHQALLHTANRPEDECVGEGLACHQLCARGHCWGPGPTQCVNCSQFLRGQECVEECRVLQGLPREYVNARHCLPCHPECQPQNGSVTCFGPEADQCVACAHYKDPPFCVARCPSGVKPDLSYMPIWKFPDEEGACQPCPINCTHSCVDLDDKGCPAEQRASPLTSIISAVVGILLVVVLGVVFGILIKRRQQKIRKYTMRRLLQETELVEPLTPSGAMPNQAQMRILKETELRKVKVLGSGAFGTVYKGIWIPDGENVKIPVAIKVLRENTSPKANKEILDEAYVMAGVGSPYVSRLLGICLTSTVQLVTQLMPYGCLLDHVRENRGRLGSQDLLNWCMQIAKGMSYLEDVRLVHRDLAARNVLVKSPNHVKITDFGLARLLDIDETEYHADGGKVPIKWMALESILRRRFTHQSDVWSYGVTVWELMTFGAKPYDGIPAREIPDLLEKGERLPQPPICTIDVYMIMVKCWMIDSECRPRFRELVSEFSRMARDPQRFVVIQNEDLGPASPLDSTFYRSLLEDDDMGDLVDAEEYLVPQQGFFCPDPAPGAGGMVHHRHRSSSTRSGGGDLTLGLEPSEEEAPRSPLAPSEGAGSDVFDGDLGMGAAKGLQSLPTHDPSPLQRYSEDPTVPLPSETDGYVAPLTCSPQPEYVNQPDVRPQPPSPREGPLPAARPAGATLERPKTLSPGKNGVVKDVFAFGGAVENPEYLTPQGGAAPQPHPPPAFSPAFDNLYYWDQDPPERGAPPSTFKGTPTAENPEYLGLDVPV
UniProt P00533, whole entry: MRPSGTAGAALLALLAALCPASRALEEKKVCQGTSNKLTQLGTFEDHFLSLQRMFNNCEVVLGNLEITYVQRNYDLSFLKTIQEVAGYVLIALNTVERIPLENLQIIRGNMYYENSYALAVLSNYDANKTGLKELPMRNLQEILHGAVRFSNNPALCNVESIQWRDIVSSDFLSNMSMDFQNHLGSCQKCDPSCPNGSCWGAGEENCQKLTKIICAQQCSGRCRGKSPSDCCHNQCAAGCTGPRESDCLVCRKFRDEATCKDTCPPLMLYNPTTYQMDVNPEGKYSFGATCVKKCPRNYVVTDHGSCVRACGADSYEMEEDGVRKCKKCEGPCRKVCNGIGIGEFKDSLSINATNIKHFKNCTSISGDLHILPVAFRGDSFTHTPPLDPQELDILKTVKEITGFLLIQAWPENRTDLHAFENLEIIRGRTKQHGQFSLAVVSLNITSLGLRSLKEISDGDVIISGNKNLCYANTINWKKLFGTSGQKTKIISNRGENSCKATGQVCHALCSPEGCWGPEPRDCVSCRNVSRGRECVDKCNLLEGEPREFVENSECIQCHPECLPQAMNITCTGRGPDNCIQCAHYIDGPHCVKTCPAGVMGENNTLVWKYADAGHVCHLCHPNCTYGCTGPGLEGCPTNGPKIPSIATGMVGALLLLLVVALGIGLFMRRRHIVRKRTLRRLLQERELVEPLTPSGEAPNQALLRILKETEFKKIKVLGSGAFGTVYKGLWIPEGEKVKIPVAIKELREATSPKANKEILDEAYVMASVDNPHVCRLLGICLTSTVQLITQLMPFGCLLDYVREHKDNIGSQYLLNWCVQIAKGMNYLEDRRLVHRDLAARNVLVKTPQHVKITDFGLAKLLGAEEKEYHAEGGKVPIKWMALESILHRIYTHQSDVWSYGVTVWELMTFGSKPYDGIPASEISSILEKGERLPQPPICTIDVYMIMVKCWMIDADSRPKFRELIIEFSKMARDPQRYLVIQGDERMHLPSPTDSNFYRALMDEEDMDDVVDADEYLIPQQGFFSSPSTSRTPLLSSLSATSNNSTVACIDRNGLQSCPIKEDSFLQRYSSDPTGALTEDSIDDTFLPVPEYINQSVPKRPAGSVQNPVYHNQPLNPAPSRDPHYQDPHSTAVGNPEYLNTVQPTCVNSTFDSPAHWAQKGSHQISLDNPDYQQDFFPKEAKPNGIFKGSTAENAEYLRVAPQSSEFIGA

Compound `Fc1cccc(COc2ccc(Nc3ncnn4ccc(COC[C@@H]5CNCCO5)c34)cc2Cl)c1` has an IC50 [1] of 560 nM and an IC50 [2] of 570 nM.
Work on `NCCOCc1ccn2ncnc(Nc3ccc4c(cnn4Cc4cccc(F)c4)c3)c12` yielded an IC50 [2] of 90 nM.
